Reference: patent US10081632B2, “Substituted tetrahydropyrido[3′,2′:4,5]pyrrolo[1,2-α]pyrazine-2-carboxamides as RSK inhibitors” (Phoenix Molecular Designs, priority 2016, dated 2018)
Structures can show the parent of a compound that is named as a salt.

How the values were obtained:
MDA-MB-231 cells [1] = experiment: Monolayer growth inhibition, Alamar blue assay; type: cell-based; settings: Homo sapiens, MDA-MB-231, MDA-MB-231 (TNBC), 5 days, single dose on day 1
MDA-MB-231 cells [2] = experiment: Monolayer growth inhibition, crystal violet assay; type: cell-based; settings: Homo sapiens, MDA-MB-231, MDA-MB-231 (TNBC), 5 days, single dose on day 1
[3] = test system: MDA-MB-231, MDA-MB-468 or 4T1 cell lines; experiment: Soft agar growth inhibition assay, over MDA-MB-231, MDA-MB-468 and 4T1; type: cell-based; settings: range over MDA-MB-231, MDA-MB-468, 4T1; read-out: IC50 Values - Soft Agar (14-22 Days), Range, All
[4] = test system: MDA-MB-231, MDA-MB-468, SUM-149-PTX, HCC1143, HCC1937 or 4T1 cells; experiment: Induction of cell death, PARP cleavage and P-YB-1 immunoblotting in TNBC models; settings: 120 hrs

Structure (SMILES) | IC50 [3] [nM] | also measured
C[C@@H]1CNC(=O)c2cc3ccc(NC(=O)c4cnn(Cc5ccccc5)c4)nc3n21 [Compound 15, (R)-1-benzyl-N-(9-methyl-6-oxo-6,7,8,9-tetrahydropyrido[3′,2′:4,5]pyrrolo[1,2-a]pyrazin-2-yl)-1H-pyrazole-4-carboxamide] | – | IC50 (MDA-MB-231 cells [1]): 21300 ± 5400 nM; IC50 (MDA-MB-231 cells [2]): 21000 ± 7500 nM
C[C@@H]1CNC(=O)c2cc3ccc(C(=O)Nc4cnn(Cc5cccc(N)c5)c4)nc3n21 [Compound 16, (R)—N-(1-(3-aminobenzyl)-1H-pyrazol-4-yl)-9-methyl-6-oxo-6,7,8,9-tetrahydropyrido[3′,2′:4,5]pyrrolo[1,2-a]pyrazine-2-carboxamide] | 200 to 3500 | –
C[C@@H]1CNC(=O)c2cc3ccc(C(=O)Nc4cnn(Cc5ccc(N)cc5)c4)nc3n21 [Compound 18, (R)—N-(1-(4-aminobenzyl)-1H-pyrazol-4-yl)-9-methyl-6-oxo-6,7,8,9-tetrahydropyrido[3′,2′:4,5]pyrrolo[1,2-a]pyrazine-2-carboxamide] | 100 to 2500 | –
C[C@@H]1CNC(=O)c2cc3ccc(C(=O)Nc4ccccc4C(N)=O)nc3n21 [Compound 21, (R)—N-(2-carbamoylphenyl)-9-methyl-6-oxo-6,7,8,9-tetrahydropyrido[3′,2′:4,5]pyrrolo[1,2-a]pyrazine-2-carboxamide] | 400 to 3100 | –
C[C@@H]1CNC(=O)c2cc3ccc(C(=O)Nc4cnn(Cc5ccc(C(F)(F)F)cc5)c4)nc3n21 [Compound 22, (R)-9-methyl-6-oxo-N-(1-(4-(trifluoromethyl)benzyl)-1H-pyrazol-4-yl)-6,7,8,9-tetrahydropyrido[3′,2′:4,5]pyrrolo[1,2-a]pyrazine-2-carboxamide] | 200 to 6900 | –
C[C@@H]1CNC(=O)c2cc3ccc(C(=O)Nc4cnn(Cc5ccc(F)cc5F)c4)nc3n21 [Compound 23, (R)—N-(1-(2,4-difluorobenzyl)-1H-pyrazol-4-yl)-9-methyl-6-oxo-6,7,8,9-tetrahydropyrido[3′,2′:4,5]pyrrolo[1,2-a]pyrazine-2-carboxamide] | 300 to 4000 | –
C[C@@H]1CNC(=O)c2c(Cl)c3ccc(C(=O)Nc4cnn(Cc5ccccc5)c4)nc3n21 [Compound 24, (R)—N-(1-benzyl-1H-pyrazol-4-yl)-5-chloro-9-methyl-6-oxo-6,7,8,9-tetrahydropyrido[3′,2′:4,5]pyrrolo[1,2-a]pyrazine-2-carboxamide] | 400 to 2500 | –
C[C@@H]1CNC(=O)c2cc3ccc(C(=O)Nc4cnn(Cc5ccc(N)cc5)c4)nc3n21 [Compound 25, (R)—N-(1-(4-aminobenzyl)-1H-pyrazol-4-yl)-9-methyl-6-oxo-6,7,8,9-tetrahydropyrido[3′,2′:4,5]pyrrolo[1,2-a]pyrazine-2-carboxamide hydrochloride salt] | 200 to 4100 | Total levels of PARP ([4]; 2, 4 or 6 uM): not affected; Apoptosis based on PARP cleavage ([4]; 2, 4 or 6 uM, relative to DMSO control): undergone apoptosis based on PARP cleavage; P-YB-1 level ([4]; all cell lines, 2, 4 or 6 uM, relative to DMSO controls): consistently reduced
C[C@@H]1CNC(=O)c2cc3ccc(C(=O)Nc4cnn(Cc5ccc(CN)cc5)c4)nc3n21 [Compound 26, (R)—N-(1-(4-(aminomethyl)benzyl)-1H-pyrazol-4-yl)-9-methyl-6-oxo-6,7,8,9-tetrahydropyrido[3′,2′:4,5]pyrrolo[1,2-a]pyrazine-2-carboxamide hydrochloride salt] | 200 to 5300 | –
